The values that follow are results of earlier work, collected in patent US7993650B2, “Polypeptides having binding affinity for HER2” (Affibody AB, priority 2003, dated 2011).

In series [1] the test system is SK-BR-3 breast cancer cells overexpressing HER2 protein. The conditions noted are these: compared to control monoclonal antibody; cited from earlier work.
In series [2] the test system is human breast and ovarian cancers (xenografts) that overexpress HER2. Particulars: mouse, in vivo; cited from earlier work.

“4D5: murine anti-HER2 monoclonal antibody 4D5, or trastuzumab, marketed under the trade name Herceptin”: the tumor cell proliferation result in series [1] is “inhibit tumor cell proliferation”. Also, the tumor-free survival time entry in series [2] was “prolonged their tumor-free survival time”.
